IL-2 act – activators of IL-2 | activation, % (series mostly up to about 46 µM) | IL-2 activation reporter assay, cell-based qHTS; stimulated with anti-CD3/CD4/CD28 beads; in transgenic mouse T cells | 360,000 compounds, 0.065% hits | AID 652025; in the data active means activation above about 50%; inconclusive means mostly about 30% to 49%; further: 0% is about no effect
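EGFP and DsRed fluorescence is measured by plate cytometry in unstimulated transgenic mouse T cells exposed to compound for 60 minutes, then stimulated 18 hours at 37 degrees C with anti-CD3/anti-CD4 beads plus anti-CD28.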
miR-21 reporter – miR-21 reporter, rising signal | HeLa miR-21 FLuc reporter, luciferase, 48 h | Potency, µM (highest dose often 38.3 µM), for inactives: at the top dose reporter change, positive = more light | 340,000 tested, under 10 active | AID 2288; active = well fitted rising curve with a large enough effect; inconclusive = small, poorly fitted or top-dose-only effect; inactive = no such curve, though single readings can be large or run the other way;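 further: % of control where 0% means no effect; miR-21 action dims this reporter so a rising signal means less miR-21 action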
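HeLa cells stably expressing CMV-driven firefly luciferase with a downstream miR-21 binding sequence, endogenously expressing miR-21, were treated with titrations (up to about 40uM final) for 48 hours at 37 degree Celsius. Luciferase luminescence was read after lysis.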
Nrf2 block – blocks Nrf2 signaling. A549 ARE-Fluc reporter, luciferase luminescence, 18-24 h. Potency, µM (highest dose often 46 µM), for the others: at the top dose activity change, negative = inhibition, actives largely listed as inhibitors. 360,000 compounds, 2.1% hits; further: potency means the concentration at half of the fitted maximal effect; on the % scale 0 is the no-effect control and ±100 the full control effect; nearly all actives have a fitted effect of over 60% in size
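Nrf2 function is reported as luminescence of an ARE-controlled luciferase in A549 cells. Compounds were tested at several concentrations, and a CellTiter-Fluor read on the same wells flagged cytotoxicity.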
ClpP mod – qHTS Assay for Activators of ClpP; AID 651965, 2013; ATP-dependent Clp protease proteolytic subunit (Bacillus subtilis (strain 168)), P80244; Potency, µM (highest dose often 57.5 µM), inactives show at the highest dose activity change, negative = active; purified B. subtilis ClpP, FRET peptide cleavage, 20 min; 340,000 compounds, 1.9% hits; active means well fitted falling curve with a large enough effect; inconclusive means small, poorly fitted or top-dose-only effect; inactive means no such curve, though single readings can be large or run the other way; further: potency means the concentration at half of the fitted maximal effect; the source files actives as falling curves though it sought activators and does not explain the sign; nearly all actives have a fitted effect of over 65% in size
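FRET quenching reversal measured ClpP activation: 10 microg/mL B. subtilis ClpP at pH 8 with the FRET-FV decapeptide, read at 430 nm after 320 nm excitation. The 20-min minus 0-min signal was scaled between DMSO/no-enzyme wells and ADEP (5.8 microM final).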
A549 tox – kills or reduces viability of A549 cells in Nrf2 counter-screen; A549 ARE-Fluc cells, CellTiter-Fluor viability, 18-24 h; Potency, µM (series often up to 46 µM), without a hit: top-dose activity change, negative = cytotoxicity, actives largely listed as inhibitors; 390,000 compounds, 0.16% hits; AID 504648; further: potency means the concentration at half of the fitted maximal effect; on the % scale 0 is the no-effect control and ±100 the full control effect
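A549 ARE_Fluc cells in 5% FBS OPTI-MEM were exposed to compounds in concentration-response for 18-24 h at 37 deg C. Viability was read by CellTiter-Fluor fluorescence (Ex 405/Em 525) after 30 min, before the luciferase read.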
Nrf2 ARE act – Nrf2 pathway activation | AREc32 ARE-luciferase reporter (MCF7-derived line), luminescence, 24 h | Potency, µM (series often up to 46.1 µM), for the others: at the top dose activation, most hits filed as activators | 410,000 compounds, 0.31% hits; further: potency means the concentration at half of the fitted maximal effect; % of control where 0% means no effect; nearly all actives have a fitted effect of over 65% in size
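Steps: seed AREc32_Fluc cells (1000/well, 5% FBS OPTI-MEM); incubate overnight at 37 deg C; add 23 nL compound; incubate 24 hr; add Steady-Glo; hold 30 min RT; read luminescence.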
* marks the source's active call; other numbers are inactive results; ? = inconclusive; · = no result given; [ ] = remark or other dose. Shown are actives, neighbours in structure and some others; about 3.7% of the full set was active somewhere. Unless noted, the call rests on the fitted dose curve; in most records, active means well fitted curve in the direction sought with a large enough effect; inconclusive means small, poorly fitted or top-dose-only effect, or another doubt; inactive means no such curve, though single readings can be large; an effect the other way counts as inactive or inconclusive.

Chains of the proteins cited; added tags and fusions are not shown.
ATP-dependent Clp protease proteolytic subunit (Bacillus subtilis (strain 168)), P80244, UniProt P80244, whole entry, looked up: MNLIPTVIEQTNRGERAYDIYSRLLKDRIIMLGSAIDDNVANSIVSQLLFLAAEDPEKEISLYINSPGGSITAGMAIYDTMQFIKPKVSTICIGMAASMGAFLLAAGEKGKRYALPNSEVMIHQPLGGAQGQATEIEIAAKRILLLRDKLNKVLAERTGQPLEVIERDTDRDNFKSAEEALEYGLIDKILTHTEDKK

1. Cc1cc(C)nc(-n2nc(C)c3c2NC(=O)CC3c2ccccc2OC(C)C)n1 (stereo unspecified)
2. O=C(Nc1ccccc1Br)c1cnn2c1NC(=C1CC1)C=C2C(F)F
3. Nc1ccccc1OCCOCCOc1ccccc1N
4. CCCCN(CCC(=O)O)c1ccc(/C=C/c2ccnc3ccccc23)cc1
5. Cc1cc2c(cc1S(=O)(=O)N(C)CC(=O)Nc1cccc(C#N)c1)OCC(=O)N2
6. O=c1cc(-c2ccc(F)cc2)oc2ccccc12
7. O=c1cc(-c2ccccc2F)oc2ccccc12
8. CSc1ccc(-c2cc(=O)c3ccccc3o2)cc1

assay / entry | 1 | 2 | 3 | 4 | 5 | 6 | 7 | 8
IL-2 act | · | · | -1 | · | · | 10 | -1 | 0
miR-21 reporter | -1% | · | -6% | · | -1% | · | -68% | -45%
Nrf2 block | -12% | · | ? | · | · | 11% | 19% | ?
ClpP mod | -4% | 155% | 22µM* | 2% | 1% | 1% | -3% | 10µM*
A549 tox | -3% | · | 2% | · | -11% | 1% | -6% | 9%[1.84 µM]
Nrf2 ARE act | -1% | · | 9% | · | 3% | 11µM* | ? | 2.8µM*

9. CCCCC12CN3CC(C)(CN(C1)C3c1c[nH]c3ccccc13)C2=O (stereo unspecified)
10. CCOC(=O)N1CCN(C(=O)COc2ccc(S(=O)(=O)NCc3ccccc3)cc2)CC1
11. Cc1ccc(C)c(NS(=O)(=O)c2ccc(OCC(=O)N3CCCC3)cc2)c1
12. Cc1ccc(Cl)cc1N1CCN(C(=O)COc2ccc(S(=O)(=O)NC(C)C)cc2)CC1
13. CCOC(=O)N1CCN(C(=O)CCNS(=O)(=O)c2ccccc2)CC1
14. Cc1ccc(Cl)cc1N1CCN(C(=O)CN(C2CCCCC2)S(C)(=O)=O)CC1
15. Cc1ccccc1NS(=O)(=O)c1ccc(OCC(=O)N2CCCC2)cc1
16. O=C(C[n+]1cccc2cc(Cl)ccc21)c1ccc(Br)cc1

assay / entry | 9 | 10 | 11 | 12 | 13 | 14 | 15 | 16
IL-2 act | · | 4 | 1 | -3 | -3 | 0 | -3 | ·
miR-21 reporter | 11% | 1% | 0% | ? | -1% | ? | -1% | ·
Nrf2 block | 0% | 18µM* | ? | 21µM* | 5% | 18µM* | · | ·
ClpP mod | 1% | -4% | -1% | -3% | -1% | 0% | 28µM* | -12%
A549 tox | -4% | -18% | -22% | -10% | 0% | -10% | 12% | ·
Nrf2 ARE act | 4% | 0% | -1% | 0% | -1% | 0% | 0% | ·

17. CC1=C(C(=O)Nc2cccc(C)c2C)C2(CCCCC2)OC1=O
18. O=C(COc1ccc(S(=O)(=O)N2CCCCC2)cc1)N1CCCCCC1
19. CC(C)(CNC(=O)c1ccc(S(=O)(=O)Nc2ccccc2F)cc1)N1CCOCC1
20. CC1CCN(C(=O)COc2ccc(S(=O)(=O)N3CCCC3)cc2)CC1
21. Cc1ccccc1NS(=O)(=O)c1ccc(C(=O)NCC(C)(C)N2CCOCC2)cc1
22. CCOC(=O)c1ccc(N2C(=O)c3n[nH]c(-c4cccs4)c3C2c2ccc(CC)cc2)cc1 (stereo unspecified)
23. CCOC(=O)c1ccc(N2C(=O)c3n[nH]c(-c4cccs4)c3C2c2ccc(C(C)C)cc2)cc1 (stereo unspecified)
24. CCOC(=O)c1ccc(N2C(=O)c3n[nH]c(-c4cccs4)c3C2c2ccc(OCC)cc2)cc1 (stereo unspecified)

assay / entry | 17 | 18 | 19 | 20 | 21 | 22 | 23 | 24
IL-2 act | · | 2 | 1 | 1 | 2 | · | · | ·
miR-21 reporter | 3% | 1% | · | -8% | · | ? | ? | ?
Nrf2 block | 7% | · | ? | -16% | 10µM* | 16µM* | 23µM* | ?
ClpP mod | 0% | 32µM* | -10% | · | 0% | -23% | -4% | -13%
A549 tox | -8% | -2% | 2% | -14% | -7% | ? | ? | -24%
Nrf2 ARE act | 0% | -1% | 2% | 0% | 0% | -4% | -1% | -3%

Record cards, from the list above. Order of screens: IL-2 act | miR-21 reporter | Nrf2 block | ClpP mod | A549 tox | Nrf2 ARE act
Shown for `CCOC(=O)c1ccc(N2C(=O)c3n[nH]c(-c4cccs4)c3C2c2ccc(C(C)C)cc2)cc1` (stereo unspecified) → · | ? | 23µM* | -4% | ? | -1%
Shown for `CC1CCN(C(=O)COc2ccc(S(=O)(=O)N3CCCC3)cc2)CC1` → 1 | -8% | -16% | · | -14% | 0%
Shown for `O=C(COc1ccc(S(=O)(=O)N2CCCCC2)cc1)N1CCCCCC1` → 2 | 1% | · | 32µM* | -2% | -1%
Shown for `CC(C)(CNC(=O)c1ccc(S(=O)(=O)Nc2ccccc2F)cc1)N1CCOCC1` → 1 | · | ? | -10% | 2% | 2%

The list goes on.
25. CCOC(=O)c1ccc(N2C(=O)c3n[nH]c(C)c3C2c2ccc(OC)cc2OC)cc1 (stereo unspecified)
26. O=C(c1ccccc1)N1CCN(c2ncnc3c2cnn3-c2ccccc2)CC1
27. CCOC(=O)C1CCN(c2ncnc3c2cnn3-c2ccc(Cl)cc2)CC1
28. Cc1nn(-c2ccccc2)c(Cl)c1C(=O)N1CCN(c2ncnc3c2cnn3-c2ccccc2)CC1
29. CCc1ccccc1NC(=O)Cn1nc(N2CCN(c3ccccc3OC)CC2)ccc1=O
30. Cc1ccccc1CN1[C@H](C)[C@H](c2ccccc2)OCCS1(=O)=O
31. Cc1cccc(C(=O)Oc2c(Sc3ccccc3)c(C)nn2C(C)(C)C)c1
32. O=C(Nc1nc2ccc(F)cc2s1)c1ccc([N+](=O)[O-])o1

assay / entry | 25 | 26 | 27 | 28 | 29 | 30 | 31 | 32
IL-2 act | 0 | -2 | 0 | -1 | · | · | · | -1
miR-21 reporter | 5% | -3% | -1% | 12% | 2% | · | 19% | ·
Nrf2 block | 18µM* | ? | 2.9µM* | 21µM* | ? | · | 8%[9.27 µM] | ·
ClpP mod | 1% | -19% | -11% | -13% | 1% | 1% | -2% | 1%
A549 tox | ? | -4% | 0% | ? | 20% | · | -7% | ·
Nrf2 ARE act | -2% | 4% | -2% | -1% | 0% | · | 0% | 3.2µM*

33. O=C(Nc1nc2c(F)cccc2s1)c1ccc([N+](=O)[O-])o1
34. O=C(Nc1nc2c(Cl)cccc2s1)c1ccc([N+](=O)[O-])o1
35. O=C(Nc1ccc(F)cc1F)N1CCc2c(sc3c2CCCC3)C1c1ccc(F)cc1 (stereo unspecified)
36. Cc1cccc(Cn2cc(/C=C/[N+](=O)[O-])c3ccccc32)c1
37. CN(Cc1ccccc1)C(=O)c1ccc(NC(=O)Cc2cccc(NC(=O)C3CCCN(C(=O)CCc4ccccc4)C3)c2)cc1 (stereo unspecified)
38. CN(C(=O)c1cccc(NC(=O)Cc2ccc(NC(=O)C3CCCN(C(=O)CCc4ccccc4)C3)cc2)c1)C1CCCC1 (stereo unspecified)
39. CN(C(=O)c1ccc(NC(=O)Cc2cccc(NC(=O)C3CCCN(C(=O)C4CCCC4)C3)c2)cc1)C1CCCC1 (stereo unspecified)
40. CN(C(=O)c1cccc(NC(=O)Cc2ccc(NC(=O)C3CCN(C(=O)CCc4ccccc4)CC3)cc2)c1)C1CC1
41. CN(C(=O)c1ccc(NC(=O)Cc2ccc(NC(=O)C3CCCN(C(=O)CCc4ccccc4)C3)cc2)cc1)C1CC1 (stereo unspecified)

assay / entry | 33 | 34 | 35 | 36 | 37 | 38 | 39 | 40 | 41
IL-2 act | -2 | 1 | · | -2 | -1 | -1 | -1 | 0 | -1
miR-21 reporter | 5% | 11% | 12% | ? | · | · | · | · | ·
Nrf2 block | 16% | 6% | · | 16µM* | 21µM* | 21µM* | 18µM* | -1% | 12µM*
ClpP mod | -2% | 1% | -1% | 1% | -1% | -1% | -2% | 0% | -3%
A549 tox | 5% | -10% | 15% | · | -11% | ? | -11% | 2% | -11%
Nrf2 ARE act | 10µM* | 5µM* | 1% | -3% | 5% | 4% | 5% | 5% | 4%
